From article PMC11145553

Amino acid sequences for entries named in this document (tags omitted). Residues count along the entry.
UniProt Q92673, 82-2135: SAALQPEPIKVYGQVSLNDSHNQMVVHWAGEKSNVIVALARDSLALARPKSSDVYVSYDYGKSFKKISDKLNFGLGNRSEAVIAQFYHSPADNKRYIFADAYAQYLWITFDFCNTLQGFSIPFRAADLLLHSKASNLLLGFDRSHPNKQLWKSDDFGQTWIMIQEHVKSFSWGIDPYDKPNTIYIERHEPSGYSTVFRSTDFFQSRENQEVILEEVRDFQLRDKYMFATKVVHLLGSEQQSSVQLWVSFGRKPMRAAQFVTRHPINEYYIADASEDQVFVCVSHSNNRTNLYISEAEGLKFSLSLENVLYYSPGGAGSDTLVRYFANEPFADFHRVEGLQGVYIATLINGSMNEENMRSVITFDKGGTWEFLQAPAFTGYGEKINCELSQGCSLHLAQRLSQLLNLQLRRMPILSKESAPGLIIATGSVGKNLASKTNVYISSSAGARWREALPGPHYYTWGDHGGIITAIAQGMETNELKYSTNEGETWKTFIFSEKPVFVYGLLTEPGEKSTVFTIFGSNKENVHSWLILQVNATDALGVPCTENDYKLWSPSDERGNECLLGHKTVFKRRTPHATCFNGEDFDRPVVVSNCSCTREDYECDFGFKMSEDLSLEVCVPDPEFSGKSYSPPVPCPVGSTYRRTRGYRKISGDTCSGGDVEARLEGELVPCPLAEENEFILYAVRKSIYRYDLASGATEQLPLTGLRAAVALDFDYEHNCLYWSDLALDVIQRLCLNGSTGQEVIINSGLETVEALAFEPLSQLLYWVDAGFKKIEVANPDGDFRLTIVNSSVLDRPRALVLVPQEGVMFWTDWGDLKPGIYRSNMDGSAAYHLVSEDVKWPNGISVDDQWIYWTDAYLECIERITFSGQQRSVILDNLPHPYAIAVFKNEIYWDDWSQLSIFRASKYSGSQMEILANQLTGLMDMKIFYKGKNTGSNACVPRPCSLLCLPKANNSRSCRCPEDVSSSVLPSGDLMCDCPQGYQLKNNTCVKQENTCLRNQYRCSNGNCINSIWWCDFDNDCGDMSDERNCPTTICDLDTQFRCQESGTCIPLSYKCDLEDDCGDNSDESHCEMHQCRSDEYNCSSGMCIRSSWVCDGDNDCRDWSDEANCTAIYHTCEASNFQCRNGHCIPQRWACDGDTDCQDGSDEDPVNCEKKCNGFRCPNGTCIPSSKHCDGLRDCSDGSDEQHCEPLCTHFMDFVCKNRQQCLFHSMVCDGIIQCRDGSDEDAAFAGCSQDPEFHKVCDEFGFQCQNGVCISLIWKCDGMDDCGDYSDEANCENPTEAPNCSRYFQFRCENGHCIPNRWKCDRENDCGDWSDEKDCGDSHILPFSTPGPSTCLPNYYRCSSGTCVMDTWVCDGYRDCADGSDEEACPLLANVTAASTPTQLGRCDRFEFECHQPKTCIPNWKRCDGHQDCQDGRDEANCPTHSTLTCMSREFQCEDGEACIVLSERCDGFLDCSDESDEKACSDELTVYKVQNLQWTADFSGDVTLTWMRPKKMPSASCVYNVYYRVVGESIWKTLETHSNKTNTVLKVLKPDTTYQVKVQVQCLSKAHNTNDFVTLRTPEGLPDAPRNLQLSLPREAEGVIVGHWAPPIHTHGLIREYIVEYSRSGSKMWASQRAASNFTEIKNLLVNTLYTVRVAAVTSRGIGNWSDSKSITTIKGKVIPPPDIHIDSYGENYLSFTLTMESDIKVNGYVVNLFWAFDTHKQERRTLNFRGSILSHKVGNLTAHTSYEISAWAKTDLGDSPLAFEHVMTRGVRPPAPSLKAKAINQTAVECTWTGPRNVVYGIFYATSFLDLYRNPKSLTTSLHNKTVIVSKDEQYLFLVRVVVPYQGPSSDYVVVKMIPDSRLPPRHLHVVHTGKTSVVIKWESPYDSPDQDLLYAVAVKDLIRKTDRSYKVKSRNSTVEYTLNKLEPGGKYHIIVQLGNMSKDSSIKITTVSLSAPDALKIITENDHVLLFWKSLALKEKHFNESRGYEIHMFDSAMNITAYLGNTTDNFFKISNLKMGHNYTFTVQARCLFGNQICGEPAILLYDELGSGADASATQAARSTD

Target: Recombinant full-length human SORL1 (sortilin-related receptor 1), residues 82-2135 (human) (UniProt Q92673)
Experiment: SPR; SORL1 (82-2135) amine-coupled to a CM5 chip; tau in single cycle titrations (3.8, 11.5, 34.4, 103.3, 310 nM); 0.15 M NaCl, 0.05% Tween 20, 1 mM CaCl2 pH 7.4; equilibrium analysis (Req from a pseudo-first-order fit); data did not fit a simple 1:1 model

Kd: 104 nM
Substance: Phosphorylated 2N4R tau produced in SF9 cells (from UniProt P10636-8 1-441) (natural protein; phosphorylated (hyperphosphorylated forms; intermediate tau phosphorylation state); sites not printed)
